Target: T1, recombinant Caspase 3 (Homo sapiens, UniProt P42574)
T1 sequence (P42574 29-175 limits assumed): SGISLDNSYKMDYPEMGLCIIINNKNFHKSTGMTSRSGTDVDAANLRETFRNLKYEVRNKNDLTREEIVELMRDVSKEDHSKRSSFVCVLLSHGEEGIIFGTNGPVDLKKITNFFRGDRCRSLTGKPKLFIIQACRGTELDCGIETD
T1 sequence (P42574 176-277 limits assumed): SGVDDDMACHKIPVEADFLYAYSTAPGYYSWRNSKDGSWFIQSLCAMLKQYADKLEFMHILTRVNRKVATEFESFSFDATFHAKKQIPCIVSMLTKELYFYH
Experiment: biochemical

## CC(=O)N[C@@H](CC(=O)O)C(=O)N[C@@H](CCC(=O)O)C(=O)N[C@H](C(=O)N[C@H](C=O)CC(=O)O)C(C)C [AcDEVD-CHO]
  IC50: 3.3 nM

— patent publication US20140349297A1, “FLUORESCENT DYES BASED ON ACRIDINE AND ACRIDINIUM DERIVATIVES” (Almac Sciences (Scotland) Limited, priority 2011, published 2014)
